Earlier results in publication PMC12547689.

Target: GFP (Aequorea victoria) [GFP: P42212]
Settings: cited from earlier work

In the case of GFP (from UniProt P42212), the Kd is listed as 100 µM.
